PI4K2A block – PI4K2A (human) kinase inhibition. activity change, negative = inhibition, % at 76.9 µM. AID 1346378. actives 0.13% (n = 420,000). purified PI4K2A, ADP-Glo luminescence, 1 h; stronger effect = lower value. Q9BTU6; in the data active = activity change below about -50%; inconclusive = mostly about -30% to -49%;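 also: -100% = wells without enzyme as full effect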
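In this quantitative HTS, ADP production by PI4K2A was quantified luminescently after 1 h at ambient temperature; 100 microM adenosine served as plate-quality control.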
Nrf2 ARE act – activates Nrf2 signaling. AREc32 ARE-luciferase reporter (MCF7-derived line), luminescence, 24 h. Potency, µM (titrated, usually from 46.1 µM), without a hit: top-dose activation, actives largely listed as activators. AID 624171. actives 0.31% (n = 410,000); also: potency is read from the fitted curve at half-maximal effect; % of control where 0% means no effect; nearly all actives have a fitted effect of over 65% in size
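Reporter line AREc32 (ARE-Fluc), seeded overnight in OPTI-MEM with 5% FBS; compound pin-transferred, 24 hr at 37 deg C, 5% CO2; luminescent read-out.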
miR-21 reporter – miR-21 reporter, rising signal | AID 2288 | HeLa miR-21 FLuc reporter, luciferase, 48 h | 340,000 tested, under 10 active | Potency, µM (titrated, usually from 38.3 µM), for the others: at the top dose reporter change, positive = more light; active = well fitted rising curve with a large enough effect; inconclusive = small, poorly fitted or top-dose-only effect; inactive = no such curve, though single readings can be large or run the other way;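 also: % of control where 0% means no effect; miR-21 action dims this reporter so a rising signal means less miR-21 action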
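Using DMEM plus 10% FBS, HeLa miR-21-FLuc cells are incubated with test compounds (final up to about 40uM) for 48 hours; firefly luciferase signal is then imaged following reagent-mediated lysis.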
GALK inh – galactokinase (human) inhibition; P51570; actives 0.007% (n = 270,000); AID 1868; Purified GALK, Kinase-Glo residual ATP luminescence; Potency, µM (titrated, usually from 57.5 µM), without a hit: at the highest dose activity change, negative = inhibition, usual class: inhibitors; also: potency is read from the fitted curve at half-maximal effect; % is scaled to controls: 0 for no effect and ±100 for the full control effect
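GALK at 5 nM final was combined with compound, 35 uM ATP and 100 uM galactose in HEPES pH8.0 with MgCl2 and DTT. The reaction ran one hour at room temperature before luminescent ATP detection.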
A549 viability – counter-screen for Nrf2 inhibitors: cytotoxicity in A549 cells; AID 504648; A549 ARE-Fluc cells, CellTiter-Fluor viability, 18-24 h; Potency, µM (titrated, usually from 46 µM), inactives show top-dose activity change, negative = cytotoxicity, actives largely listed as inhibitors; actives 0.16% (n = 390,000); also: potency is read from the fitted curve at half-maximal effect; % is scaled to controls: 0 for no effect and ±100 for the full control effect
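A549 ARE_Fluc cells in 5% FBS OPTI-MEM were exposed to compounds in concentration-response for 18-24 h at 37 deg C. Viability was read by CellTiter-Fluor fluorescence (Ex 405/Em 525) after 30 min, before the luciferase read.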
Nrf2 inh – blocks Nrf2 signaling | A549 ARE-Fluc reporter, luciferase luminescence, 18-24 h | Potency, µM (doses to about 46 µM), for inactives: at the top dose activity change, negative = inhibition, most hits filed as inhibitors | actives 2.1% (n = 360,000); also: potency is read from the fitted curve at half-maximal effect; % is scaled to controls: 0 for no effect and ±100 for the full control effect; nearly all actives have a fitted effect of over 60% in size
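Quantitative HTS in A549 cells stably bearing an antioxidant response element-firefly luciferase construct. Inhibition of Nrf2-driven transcription was scored by luminescence after 18-24 h of compound exposure at 37 °C.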
Numbers without * were called inactive; ? = inconclusive; nt = not tested or not shown; ! = not active in a repeat. An excerpt weighted towards active compounds, which were near 2.2% of everything screened. Unless noted, calls follow the shape of the dose curve; as a rule, active = well fitted curve in the direction sought with a large enough effect; inconclusive = small, poorly fitted or top-dose-only effect, or another doubt; inactive = no such curve, though single readings can be large; an effect the other way counts as inactive or inconclusive.

[1] Cc1noc(C)c1S(=O)(=O)N(CC(=O)Nc1ccc(C(F)(F)F)cc1)c1ccc(C(C)C)cc1
[2] COC(=O)[C@]12C[C@H](CC(=O)NCCCN3CCCC3=O)C(=O)N(CCc3ccc(OC)c(OC)c3)C1=C[C@H](C1CCCC1)O[C@@H]2C
[3] C[C@H](NC(N)=O)C(=O)N1CCN(S(=O)(=O)c2ccc3ccccc3c2)CC1
[4] Cc1ccc(N(C)C(=O)N2CCN(S(=O)(=O)c3ccc4ccccc4c3)CC2)cc1
[5] CNC(=S)N1CCN(S(=O)(=O)c2ccc3ccccc3c2)CC1
assay / compound	1	2	3	4	5
PI4K2A block	-1.0	4.1	0.1	-6.2	-4.0
Nrf2 ARE act	4.2%	nt	0.0%	-0.6%	2.2%
miR-21 reporter	15.3%	nt	-2.7%	-0.7%	-0.7%
GALK inh	nt	nt	-1.2%	3.6%	-3.3%
A549 viability	-13.3%	nt	1.2%	-16.8%	2.4%
Nrf2 inh	16.4µM*	nt	5.8%	18.4µM*	23.1µM*

[6] COc1ccc(/C=N/OCC(=O)NC(c2ccccc2)c2ccccc2)cc1OC
[7] CCC[C@H]1[C@@H](NC(=O)c2cccnc2)CC[C@@]23CCCN2C(=O)CCC[C@@H]13
[8] N#CCC[C@@H]1CC[C@]2(CCCN(Cc3ccc(Br)cc3)C2)O1
[9] Cc1cc(=O)n2nc(-c3ccccc3)sc2c1C#N
[10] Cc1cc(=O)n(Cc2ccccc2)c(O)c1C#N
assay / compound	6	7	8	9	10
PI4K2A block	1.7	-1.1	-0.8	-2.5	-2.8
Nrf2 ARE act	5.3%	nt	nt	2.24µM*	-0.4%
miR-21 reporter	14.9%	nt	nt	-5.9%	1.1%
GALK inh	0.1%	nt	nt	5.1%	2.3%
A549 viability	0.0%	nt	nt	-11.4%	4.3%
Nrf2 inh	5.8µM*	nt	nt	15.7%	-8.6%

[11] COC(=O)C[C@@H]1CC[C@H]2[C@@H](COc3ccc(NC(=O)c4ccc(C(F)(F)F)cc4)cc3C(=O)N2C)O1
[12] COc1ccc(/C=C2/SC(=S)N(Cc3ccccc3)C2=O)cc1O
[13] O=C1/C(=C\c2cc(Cl)c(O)c(Cl)c2)SC(=S)N1Cc1ccccc1
[14] CCc1ccc2[nH]c3nc(SCC(=O)NNC(=O)c4ccc(C(C)(C)C)cc4)nnc3c2c1
[15] COCCCNC(=O)C[C@H]1C[C@@]2(C(=O)OC)C(=C[C@H](C3CCCC3)O[C@@H]2C)N(CCC2=CCCCC2)C1=O
assay / compound	11	12	13	14	15
PI4K2A block	-1.0	0.4	3.2	0.2	1.2
Nrf2 ARE act	nt	-0.4%	0.0%	-0.6%	nt
miR-21 reporter	nt	-16.7%	25.3%	-14.3%	nt
GALK inh	nt	nt	?	1.9%	nt
A549 viability	nt	?	-23.7%	11.6µM*	nt
Nrf2 inh	nt	?	18.4µM*	?	nt

[16] COC(=O)c1ccccc1NC1=C/C(=N\S(=O)(=O)c2cccs2)c2ccccc2C1=O
[17] CCc1cc[n+](C2=C([O-])c3ccccc3C(=O)/C2=N\S(=O)(=O)c2cccs2)cc1
[18] CC(=O)OC12CCCN(C1)/C(=C/c1cccnc1)C2 (stereo not drawn)
[19] COc1ccccc1-c1c(C)nn2c(N3CCN(Cc4ccccc4)CC3)cc(C)nc12
[20] COc1ccccc1-c1c(C)nn2c(N3CCCCCC3)cc(C)nc12
assay / compound	16	17	18	19	20
PI4K2A block	?	-21.1	2.8	3.7	-5.0
Nrf2 ARE act	13.2%	-2.4%	nt	1.7%	-0.8%
miR-21 reporter	25.9%	?	nt	-0.8%	?
GALK inh	0.6%	1.0%	nt	0.4%	-2.1%
A549 viability	?	?	nt	-5.8%	?
Nrf2 inh	-5.1%	18.4µM*	nt	23.1µM*	25.9µM*

Gathered by group, the entries above containing a cyano group
[8] N#CCC[C@@H]1CC[C@]2(CCCN(Cc3ccc(Br)cc3)C2)O1
[9] Cc1cc(=O)n2nc(-c3ccccc3)sc2c1C#N
[10] Cc1cc(=O)n(Cc2ccccc2)c(O)c1C#N
assay / compound	8	9	10
PI4K2A block	-0.8	-2.5	-2.8
Nrf2 ARE act	nt	2.24µM*	-0.4%
miR-21 reporter	nt	-5.9%	1.1%
GALK inh	nt	5.1%	2.3%
A549 viability	nt	-11.4%	4.3%
Nrf2 inh	nt	15.7%	-8.6%

(listing goes on)
[21] COc1ccc(-c2c(C)nn3c(N4CCN(Cc5ccccc5)CC4)cc(C)nc23)cc1OC
[22] COc1ccccc1-c1c(C)nn2c(N3CCOCC3)cc(C)nc12
[23] COCCCN(Cc1ccco1)C(=O)c1cc2c(s1)-c1ccccc1OC2
[24] Cc1ccc(CCNC(=O)c2cc3c(s2)-c2ccccc2OC3)cc1
[25] O=C(NCCc1ccc(Cl)cc1)c1cc2c(s1)-c1ccccc1OC2
assay / compound	21	22	23	24	25
PI4K2A block	-5.0	-0.8	-0.8	0.7	2.0
Nrf2 ARE act	0.4%	-0.5%	1.3%	0.0%	-1.5%
miR-21 reporter	0.5%	0.7%	-9.1%	-20.2%	4.3%
GALK inh	2.0%	-0.9%	nt	nt	nt
A549 viability	-3.1%	-1.3%	-10.4%	?	-0.1%
Nrf2 inh	4.2%	?	9.2µM*	18.4µM*	?

[26] CCCCN(CCCC)C(C(N)=O)c1ccc(OC)cc1 (stereo not drawn)
[27] COc1ccc(CN(C)C(=O)CCC(=O)N2CCN(S(=O)(=O)c3ccc(Cl)cc3)CC2)c(OC)c1
[28] COc1ccc(CN(C)C(=O)CCc2ccc(S(=O)(=O)N3CCCCCC3)cc2)c(OC)c1
[29] Oc1ccc(/C=N\Nc2nncc(-c3ccccc3)n2)cc1
[30] Cc1ccc2oc(C(Cl)(Cl)Cl)cc(=O)c2c1
assay / compound	26	27	28	29	30
PI4K2A block	-5.4	-0.6	7.2	0.9	-1.6
Nrf2 ARE act	nt	-0.7%	0.6%	7.08µM*	22.4µM*
miR-21 reporter	nt	nt	nt	-2.5%	24.1%
GALK inh	nt	nt	nt	0.0%	-3.1%
A549 viability	nt	-13.9%	-19.1%	-14.0%	?
Nrf2 inh	nt	11.6µM*	?	?	0.5%

[31] COc1ccccc1N(CC(=O)NC1CC2CCC1C2)S(=O)(=O)c1ccc(C)cc1 (stereo not drawn)
[32] COc1ccc(S(=O)(=O)N(CC(=O)NC2CC3CCC2C3)c2ccccc2OC)cc1 (stereo not drawn)
[33] COc1ccccc1N(CC(=O)NCCSCc1ccccc1)S(=O)(=O)c1ccc(C)cc1
[34] CCCCOCCCNC(=O)C[C@H]1C[C@@]2(C(=O)OC)C(=C[C@H](C3CCCC3)O[C@@H]2C)N(Cc2cccc3ccccc23)C1=O
[35] Cc1ccc(N(C(C)C(=O)Nc2cc(Cl)ccc2Oc2ccccc2)S(C)(=O)=O)cc1 (stereo not drawn)
assay / compound	31	32	33	34	35
PI4K2A block	3.0	1.4	1.5	-4.4	-0.3
Nrf2 ARE act	0.7%	4.2%	-0.1%	nt	2.4%
miR-21 reporter	12.0%	4.8%	?	nt	21.7%
GALK inh	2.0%	-1.0%	11.8%	nt	2.5%
A549 viability	-18.4%	0.3%	-2.5%	nt	-0.5%
Nrf2 inh	18.4µM*	-12.9%	14.6µM*!	nt	20.6µM*

[36] O=C(NC1CCCCN(Cc2cccc(C(F)(F)F)c2)C1=O)c1ccc(F)c(F)c1 (stereo not drawn)
[37] COc1cc(NC(=S)NCc2cccs2)cc(OC)c1
[38] Cc1cc(C)cc(NC(=S)NCc2cccs2)c1
[39] CC(C)CCN1C(=O)COc2ccccc2C1c1nnnn1-c1ccc2c(c1)OCCO2 (stereo not drawn)
[40] COC(=O)c1ccc(NC(=O)CSc2nc3cccnc3n2C)cc1
[41] O=C(CSc1nc2ccccc2c(=O)[nH]1)Nc1ccc(C(=O)O)cc1
[42] COc1ccc(NC(=O)CSc2nc3sc(C)cc3c(=O)n2C)c(OC)c1
assay / compound	36	37	38	39	40	41	42
PI4K2A block	0.2	-0.4	-0.7	-4.5	6.8	4.8	-1.9
Nrf2 ARE act	nt	2.8%	2.9%	nt	0.0%	0.1%	-1.0%
miR-21 reporter	nt	-13.0%	-1.8%	nt	-3.0%	-1.1%	4.0%
GALK inh	nt	0.0%	-0.9%	nt	-0.8%	1.0%	-1.6%
A549 viability	nt	1.9%	?	nt	-6.6%	-0.4%	-11.1%
Nrf2 inh	nt	2.7%	23.1µM*	nt	?	0.8%	18.4µM*

Screens: PubChem, National Center for Advancing Translational Sciences (NCATS)
